How the values were obtained:
GluR3 = format: cell-based, rat; details: for response of oocytes to agonist (in words): QUIS 10 μM, AMPA 50 μM, GLU 100 μM, NMDA 30 μM plus 10 μM glycine, APB 50 μM, -70 mV, 3 days after 2 ng RNA
GluR5-1 = format: cell-based, rat; details: KA, AMPA 50 μM, quisqualate 10 μM, APB 100 μM, NMDA 100 μM with 10 μM glycine
[1] = system: oocytes injected with pool of in vitro transcripts from rat forebrain cDNA library; assay: Voltage recordings from oocytes injected with pooled in vitro transcripts of the λZAPII RTB1 cDNA library; format: cell-based; details: 10 days after injection
Method: A directional cDNA library (λZAPII RTB1; complexity: 8×10^5 elements), consisting of 18 independent sublibraries of 44,000 clones each, was constructed from this poly(A)^+ RNA using the bacteriophage expression vector λZAPII. A pool of in vitro transcripts, comprised of transcripts made separately from all 18 amplified sublibraries, was injected into oocytes. […]. No responses to NMDA or quisqualate were detected. […]. Subsequently, pools of 44,000 clones (=the single sublibraries), 4,000, 400 and 40 clones were tested. In each of these tests at least one pool responded to KA.

The chains behind the UniProt entries cited, without tags or fusion partners. Residues count along the entry.
UniProt P19490, 19-907: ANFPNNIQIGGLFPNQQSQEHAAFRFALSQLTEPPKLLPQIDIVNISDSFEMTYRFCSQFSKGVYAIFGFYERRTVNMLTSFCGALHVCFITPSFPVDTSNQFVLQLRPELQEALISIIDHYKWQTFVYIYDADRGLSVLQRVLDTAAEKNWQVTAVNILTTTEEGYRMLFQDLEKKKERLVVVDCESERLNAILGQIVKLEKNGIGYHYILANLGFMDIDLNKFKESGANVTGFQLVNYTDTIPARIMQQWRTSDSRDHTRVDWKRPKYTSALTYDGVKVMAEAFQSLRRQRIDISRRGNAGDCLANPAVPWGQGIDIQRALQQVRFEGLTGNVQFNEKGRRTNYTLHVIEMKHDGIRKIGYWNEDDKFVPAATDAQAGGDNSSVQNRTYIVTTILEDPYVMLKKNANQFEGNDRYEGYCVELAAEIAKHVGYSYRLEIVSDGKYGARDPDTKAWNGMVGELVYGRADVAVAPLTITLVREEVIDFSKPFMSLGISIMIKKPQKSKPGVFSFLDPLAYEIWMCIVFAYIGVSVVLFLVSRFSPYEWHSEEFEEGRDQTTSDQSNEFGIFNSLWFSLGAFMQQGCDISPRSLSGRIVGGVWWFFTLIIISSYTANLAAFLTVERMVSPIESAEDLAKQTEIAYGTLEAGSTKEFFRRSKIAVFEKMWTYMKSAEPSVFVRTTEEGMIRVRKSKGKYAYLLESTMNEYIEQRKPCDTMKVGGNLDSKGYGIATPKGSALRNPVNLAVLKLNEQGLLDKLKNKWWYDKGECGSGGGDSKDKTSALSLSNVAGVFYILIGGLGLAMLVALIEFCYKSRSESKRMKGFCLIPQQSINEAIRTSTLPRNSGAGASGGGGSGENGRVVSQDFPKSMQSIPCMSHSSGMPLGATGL

GluR1 = GluR1 (Rattus norvegicus, UniProt P19490); assay: Electrophysiological recording in Xenopus oocytes injected with GluR1 in vitro RNA; details: -70 mV
GluR2 = details: 100 μM KA

| Structure (SMILES) | response of oocytes to agonist (in words) (GluR3) | membrane depolarization elicited by agonist (in words) (GluR5-1) | response to agonist (in words) [1] | response of oocytes to agonist (in words) (GluR1; QUIS 10 μM, AMPA 50 μM, GLU 100 μM, NMDA 30 μM plus 10 μM glycine, APB 50 μM, 3 days after 2 ng RNA) | depolarization on bath application (GluR3; 100 μM KA) | depolarizations ([1]; 100 μM kainate) | depolarization on bath application (GluR2) | Compound Alone (%) (GluR1; % of the response evoked by 30 μM kainate immediately before drug application, compounds at 1 mM (kainate 30 μM), peak currents, 3 oocytes, ± SEM) |
| --- | --- | --- | --- | --- | --- | --- | --- | --- |
| N[C@@H](Cn1oc(=O)[nH]c1=O)C(=O)O [quisqualate, quisqualic acid] | respond | did not elicit membrane depolarizations | No responses | respond |  |  |  |  |
| Cc1onc(O)c1CC(N)C(=O)O (stereo not drawn) [AMPA, α-amino-3-hydroxy-5-methyl-isoxazole-4-propionic acid] | respond |  |  |  |  |  |  |  |
| C=C(C)[C@H]1CN[C@H](C(=O)O)[C@H]1CC(=O)O [kainate, kainic acid] |  |  |  |  | depolarize | 1-3 mV | depolarize | 100.0% |

From patent publication US5945509A, “Glutamate receptor compositions and method” (The Salk Institute for Biological Studies, priority 1995, dated 1999)
